In the library only some 2.1% were active in any assay of this set; here they are far more common.
UUG fidelity – modulators of start codon recognition fidelity in yeast. S. cerevisiae UUG-firefly luciferase reporter, luminescence/redox ratio. activity score, % at 18.7 µM. 0.13% of 350,000 active. AID 602363;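 active = replicate mean at a twofold rise or more, about +100% in these data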;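 also: firefly luciferase made from a UUG start codon reports start codon fidelity; reporter light over untreated wells divided by growth signal over untreated wells; some hits fall short of that in this replicate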
PDI inh – inhibitors of human PDI, primary screen, biochemical, turbidity, single point, plate reader | inhibition, % at 10 µM | Protein disulfide-isomerase (Homo sapiens), P07237 | 350,000 compounds, 0.052% hits | PDI insulin aggregation turbidity, A650, 90 min;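 active = mean inhibition across replicates of 30% or more, whatever share of single replicates reach that level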
ERp5 inh – inhibitors of ERp5-driven insulin aggregation, primary screen, biochemical, turbidity, absorbance 650 nm, single point | Protein disulfide-isomerase A6 (Homo sapiens), Q15084 | 90 min | inhibition, % at 9.99 µM | 350,000 compounds, 0.05% hits | AID 651711, 2012;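 active = mean replicate inhibition above about 25%, with every replicate also reaching it, limit read from the data, passing the limit was not always enough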
SMARCA2 activ – SMARCA2 (BRM) function activators, primary screen, cell-based, luminescence, high throughput; MG213 cells, MMTV-luciferase reporter, dexamethasone, overnight; activation, % at 9.1 µM; 370,000 compounds, 1% hits; AID 652017, 2013; in the data active = activation above about 7.8%
INS-1E GSIS act – GLuc luminescence reporter in INS-1E cells, primary screen for activators of glucose-dependent secretion of insulin | INS-1E GLuc reporter insulin secretion, 2-3 h | activation, % at 16.6 µM | 370,000 compounds, 0.61% hits | AID 743287, 2014;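 active = lowest replicate activation of at least 40%, so every replicate reaches that level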
Rev-erbA mod – modulators of Rev-erb alpha DNA binding, primary screen, biochemical, FITC-DNA, fluorescence polarization, uHTS. Nuclear receptor subfamily 1 group D member 1 (Homo sapiens), P20393. Rev-erbα–FITC-DNA binding, 90 min. activity, % at 10 µM. 370,000 compounds, 0.79% hits. AID 1259318, 2017;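 active = activity above about 14%, limit read from the data; passing the limit was not always enough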
SMARCA2 conf – SMARCA2 (BRM) function activators, confirmation, cell-based, luminescence, triplicate | activation, % at 9.1 µM | shares compounds with SMARCA2 activ | 3,500 compounds, 30% hits | MG213 cells, MMTV-luciferase with dexamethasone, overnight; MG213 cells expressing E1A, Rb sequestered; DMSO wells 0%, reference activator 100% | AID 652260, 2013;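 active = activation above its plate's cutoff, the mean activation of tested wells plus 3 SD, cut at about 7.9% in these data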
GAL4-VP16 Luc – GAL4-VP16 luciferase reporter activation, counter-screen for SMARCA2 (BRM) activator project, cell-based, pG5luc, luminescence, high throughput; activation, % at 9.1 µM; 3,500 compounds, 41% hits; AID 686939, 2013; HEK293 GAL4-VP16 pG5luc reporter; scaled: DMSO wells 0%, SAHA wells 100%; shares compounds with SMARCA2 activ;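 active = activation above the solvent-only control well mean plus 3 SD, averaged across control plates, cut at about 5.2% in these data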
Large screens that a line does not name were inactive (follow-up assays come after a bar, where they were run).

COc1ccc(/C=N/NC(=O)OC(C)(C)C)cc1OC	SMARCA2 activ 8.4 (no result: UUG fidelity, ERp5 inh) | SMARCA2 conf inactive | GAL4-VP16 Luc inactive
COc1ccc(/C=N/Nc2ccc(C(=O)O)cc2)cc1Br	none
COc1ccc(/C=N\NC(=O)C2CCCC2)cc1Br	SMARCA2 activ 9.0 | SMARCA2 conf inactive | GAL4-VP16 Luc inactive
CCOc1cc(/C=N/Nc2cccc(C(=O)O)c2)ccc1OC(=O)c1ccccc1	SMARCA2 activ 11 (no result: UUG fidelity) | SMARCA2 conf inactive | GAL4-VP16 Luc 18
COc1ccc(/C=N/Nc2ccc(C(=O)O)cc2)cc1OC	SMARCA2 activ 9.1 | SMARCA2 conf inactive | GAL4-VP16 Luc 13
CC(C)C#Cc1cnc2c(c1)C(=O)N([C@@H](C)CO)C[C@H](C)[C@@H](CN(C)Cc1cccc(F)c1)O2	none (no result: PDI inh, SMARCA2 activ, Rev-erbA mod)
Cc1cccc(S(=O)(=O)N2CC[C@@H]3[C@H](CO)Nc4ccc(C#Cc5ccc(F)cc5)cc4[C@@H]32)c1	none (no result: PDI inh, SMARCA2 activ, Rev-erbA mod)
COc1cc(/C=N/Nc2ccccc2)ccc1OC(=O)c1cccs1	SMARCA2 activ 9.7 (no result: UUG fidelity, PDI inh, ERp5 inh) | SMARCA2 conf inactive | GAL4-VP16 Luc inactive
CCc1nn(CC(=O)N2CCN(c3ccc(OC)cc3)CC2)c(=O)c2cc3occc3n12	SMARCA2 activ 8.4 | SMARCA2 conf inactive | GAL4-VP16 Luc inactive
CCc1nn(CC(=O)N2CCC(C(N)=O)CC2)c(=O)c2cc3occc3n12	none
CC/S(=N\S(=O)(=O)c1ccc(C)cc1)c1ccccc1 (stereo not drawn)	SMARCA2 activ 8.1 (no result: UUG fidelity) | SMARCA2 conf inactive | GAL4-VP16 Luc inactive
Cn1c(C(=O)N2CCN(Cc3ccccc3)CC2)cc2c(=O)n(C)c3ccccc3c21	SMARCA2 activ 8.9 (no result: PDI inh) | SMARCA2 conf inactive | GAL4-VP16 Luc inactive
Cc1ccccc1S(=O)(=O)N(C)C[C@@H]1OCc2cn(nn2)CCCC(=O)N([C@H](C)CO)C[C@@H]1C	none (no result: PDI inh, SMARCA2 activ, Rev-erbA mod)
CCn1c([N+](=O)[O-])nc2c1c(=O)[nH]c(=O)n2C	SMARCA2 activ 19 | SMARCA2 conf 56 | GAL4-VP16 Luc inactive
COc1ccc(S(=O)(=O)Nc2cccc3c2O[C@H](CN(C)S(=O)(=O)c2cn(C)cn2)[C@H](C)CN([C@H](C)CO)C3=O)cc1	none (no result: PDI inh, SMARCA2 activ, Rev-erbA mod)
C[C@@H]1CN([C@@H](C)CO)C(=O)c2cc(NC(=O)Nc3ccc(C(F)(F)F)cc3)ccc2O[C@@H](C)CCCCO[C@H]1CN(C)C(=O)Nc1cccc2ccccc12	none (no result: PDI inh, SMARCA2 activ, Rev-erbA mod)
COc1cccc(C(=O)Nc2ccc(NC(=O)C(C)C)nc2)c1	SMARCA2 activ 8.5 (no result: ERp5 inh) | SMARCA2 conf inactive | GAL4-VP16 Luc inactive
COc1cccc(C(=O)Nc2ccc(NC(=O)C3CC3)cn2)c1	SMARCA2 activ 8.4 (no result: ERp5 inh, INS-1E GSIS act) | SMARCA2 conf inactive | GAL4-VP16 Luc 8.2
CCN(C(C)=O)c1cnc(C=NNC(N)=S)c2ccccc12	none (no result: UUG fidelity)
NC(=S)NN=Cc1nccc2c(N)cccc12	SMARCA2 activ 8.3 | SMARCA2 conf inactive | GAL4-VP16 Luc inactive
COc1ccc2c3c(n(C)c2c1)[C@@H](CO)N(C(=O)Nc1ccc(F)cc1)CC31CN(S(=O)(=O)c2cccs2)C1	none (no result: UUG fidelity, PDI inh, ERp5 inh, SMARCA2 activ, Rev-erbA mod)
CC1(C)OC(=O)C2=C(CC(CCc3ccccc3)OC2c2ccc(F)cc2)O1 (stereo not drawn)	none (no result: UUG fidelity, PDI inh, INS-1E GSIS act)
CC1(C)OC(=O)C2=C(C[C@@H](CCC(F)(F)F)O[C@H]2c2ccc(F)cc2)O1	SMARCA2 activ 8.2 (no result: PDI inh) | SMARCA2 conf inactive | GAL4-VP16 Luc inactive
Cc1noc(C)c1NC(=O)Nc1ccc2c(c1)C(=O)N([C@H](C)CO)C[C@H](C)[C@H](CN(C)Cc1ccc(Cl)c(Cl)c1)OCCCC[C@H](C)O2	none (no result: PDI inh, SMARCA2 activ, Rev-erbA mod)
COc1cccc(/C=N/Nc2nnc(C)n2N)c1OCc1ccccc1Cl	SMARCA2 activ 16 (no result: UUG fidelity, ERp5 inh) | SMARCA2 conf inactive | GAL4-VP16 Luc inactive
CCc1nnc(N/N=C/c2ccccc2Cl)n1N	none (no result: ERp5 inh, INS-1E GSIS act)
C[C@@H]1CCCCO[C@H](CN(C)S(=O)(=O)c2cn(C)cn2)[C@@H](C)CN([C@H](C)CO)C(=O)c2cc(NS(=O)(=O)c3ccc(F)cc3)ccc2O1	none (no result: PDI inh, SMARCA2 activ, Rev-erbA mod)
CO[C@@H]1CN(C)C(=O)c2ccc(NC(=O)c3cnccn3)cc2OC[C@@H](C)N(C(=O)c2cnccn2)C[C@H]1C	none (no result: PDI inh, SMARCA2 activ, Rev-erbA mod)
C[C@@H]1CN([C@H](C)CO)C(=O)c2cc(NS(=O)(=O)c3ccccc3)ccc2O[C@@H]1CN(C)Cc1ccccc1	none (no result: PDI inh, SMARCA2 activ, Rev-erbA mod)
C[C@@H]1CN([C@@H](C)CO)S(=O)(=O)c2ccc(-c3ccccc3F)cc2O[C@H]1CN(C)C(=O)C1CC1	none (no result: PDI inh, SMARCA2 activ, Rev-erbA mod)
Cc1ccc(OCCC(=O)OCC(=O)NCc2ccccc2)cc1	none (no result: UUG fidelity)
COc1ccc(OCCC(=O)OCC(=O)NCc2ccccc2)cc1	SMARCA2 activ 9.8 (no result: UUG fidelity, ERp5 inh) | SMARCA2 conf inactive | GAL4-VP16 Luc inactive
C[C@@H]1CN([C@H](C)CO)C(=O)c2cc(NC(=O)Nc3ccc(F)cc3)ccc2O[C@H]1CN(C)S(C)(=O)=O	none (no result: PDI inh, SMARCA2 activ, Rev-erbA mod)
N#C/C(=C\C=C\c1ccccc1)c1nc(-c2ccc3c(c2)OCO3)cs1	SMARCA2 activ 9.8 (no result: UUG fidelity, ERp5 inh) | SMARCA2 conf inactive | GAL4-VP16 Luc inactive
CC(C)NC(=O)Nc1ccc2c(c1)C(=O)N(C)C[C@H](C)[C@@H](CN(C)C)O2	none (no result: UUG fidelity, PDI inh, ERp5 inh, SMARCA2 activ, Rev-erbA mod)
Cc1noc(C)c1NC(=O)N[C@@H]1CC[C@H](CC(=O)N2CCCCC2)O[C@@H]1CO	none (no result: PDI inh, SMARCA2 activ, Rev-erbA mod)
CN1c2ccc(-c3ccccc3F)cc2[C@@H]2[C@@H](CCN2S(=O)(=O)c2ccc(F)cc2)[C@@H]1CO	none (no result: PDI inh, SMARCA2 activ, Rev-erbA mod)
N#CC1=C(N)Oc2n[nH]c(-c3cccnc3)c2C1c1ccc([N+](=O)[O-])o1 (stereo not drawn)	SMARCA2 activ 10 | SMARCA2 conf inactive | GAL4-VP16 Luc inactive
CC(=O)N(C)C[C@@H]1Oc2ncc(C#CC3(O)CCCC3)cc2C(=O)N([C@H](C)CO)C[C@@H]1C	none (no result: PDI inh, SMARCA2 activ, Rev-erbA mod)
CCOc1ccc(NC(=O)CSc2nccn2Cc2ccco2)cc1	SMARCA2 activ 11 (no result: INS-1E GSIS act) | SMARCA2 conf inactive | GAL4-VP16 Luc inactive
CC1(c2ccncc2)Nc2ccccc2-c2nc3ccccc3n21 (stereo not drawn)	SMARCA2 activ 9.1 | SMARCA2 conf inactive | GAL4-VP16 Luc inactive
Cc1ccccc1Cn1c([N+](=O)[O-])cnc1C	SMARCA2 activ 9.9 (no result: UUG fidelity) | SMARCA2 conf inactive | GAL4-VP16 Luc inactive
